The target in this assay is D(1A) dopamine receptor (Rattus norvegicus) (UniProt P18901). The settings on record: Striatum.

Chains of the proteins cited; added tags and fusions are not shown.
UniProt P18901, whole entry: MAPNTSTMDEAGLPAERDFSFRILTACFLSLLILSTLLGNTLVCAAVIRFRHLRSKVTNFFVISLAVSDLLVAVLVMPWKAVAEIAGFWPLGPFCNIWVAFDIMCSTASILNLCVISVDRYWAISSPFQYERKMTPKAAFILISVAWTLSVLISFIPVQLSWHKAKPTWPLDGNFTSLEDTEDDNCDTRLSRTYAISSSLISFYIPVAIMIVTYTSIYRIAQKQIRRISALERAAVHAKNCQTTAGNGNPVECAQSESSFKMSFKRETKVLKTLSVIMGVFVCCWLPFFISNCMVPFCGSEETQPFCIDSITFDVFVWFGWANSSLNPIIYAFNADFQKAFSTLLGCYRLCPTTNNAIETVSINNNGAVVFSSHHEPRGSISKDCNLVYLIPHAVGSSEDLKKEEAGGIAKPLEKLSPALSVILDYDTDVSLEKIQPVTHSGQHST

SMILES strings stand for the structures.

Molecule `CCCN(CCC)CCc1ccc(O)c2nc(O)oc12` yielded a K bind of 6330 nM.
In turn, `CCCN(CCC)CCc1ccc(O)c2nc(O)sc12` had a K bind of 516 nM.
Molecule `CCCN(CCC)CCc1ccc(O)c2c1C(=O)C(=O)N2` yielded a K bind of 10000 nM.
As for `CCCN(CCC)CCc1cccc2nc(O)sc12`, the figure is 4700 nM.
Consider `NCCc1cccc2nc(O)sc12`, for which the K bind was determined as 980 nM.
`CCCN(CCC)CCc1ccc(O)c2[nH]c(O)nc12`: the K bind stood at 2420 nM.
`CNCCc1ccc(O)c2nc(O)sc12` showed a K bind of 30 nM.

The values are drawn from ChEMBL document CHEMBL1123777 (J Med Chem, 1987).
